The species entered for the experiment is Homo sapiens. The experiment is described as follows: Selectivity for human MC4R over human MC5R.

In the case of `COc1cc(Cl)ccc1CC(C)C(=O)N1CCN(c2ccc(C(F)(F)F)cc2[C@@H](N)CC(C)C)CC1` (stereo partly specified), the Selectivity ratio amounted to 6.

(Values after ChEMBL document CHEMBL1138325, “Design, synthesis, in vitro, and in vivo characterization of phenylpiperazines and pyridinylpiperazines as potent and selective antagonists of the melanocortin-4 receptor” (J Med Chem, 2007).)
